From US4816465A, “Decahydroquinolines and analgesic use thereof” (dated 1989) come the findings set out here.

By UniProt entry, the sequences of proteins in these tests, tags left out. Where a name states a change or a piece, a line headed by the entry shows the natural chain unless it says otherwise.
UniProt P41144: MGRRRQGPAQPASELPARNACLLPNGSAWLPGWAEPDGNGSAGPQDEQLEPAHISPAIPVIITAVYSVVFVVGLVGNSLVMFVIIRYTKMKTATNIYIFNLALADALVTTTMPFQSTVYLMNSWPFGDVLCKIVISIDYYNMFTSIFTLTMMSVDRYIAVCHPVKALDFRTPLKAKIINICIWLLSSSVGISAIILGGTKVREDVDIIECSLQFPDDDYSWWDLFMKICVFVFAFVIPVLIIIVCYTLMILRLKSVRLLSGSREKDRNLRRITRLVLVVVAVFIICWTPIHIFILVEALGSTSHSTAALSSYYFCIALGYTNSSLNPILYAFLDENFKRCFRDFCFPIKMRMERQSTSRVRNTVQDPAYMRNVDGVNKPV

The structures appear in SMILES notation. Where two headings read alike, the source gives them in different places.

Assay [1] addresses Opiate Receptor K (Cavia porcellus, UniProt P41144). Put plainly: Bond with the Opiate Receptor K in vitro (displacement of 3H ethylketocyclazocine, guinea-pig cerebella membranes). The following applies: read-out: IC50 (50% inhibiting concentration), 9 3H ethylketo-cyclazocine 1 nM, Tris pH 7.7, 25° C., 40 minutes.
Assay [2] deals with mice. Put plainly: Stretchings Test (acetic acid, analgesic activity). The following applies: oral, half-an-hour before acetic acid injection; 15 minutes observation.
The test system of assay [3] is electroencephalogram of anaesthetized rats. Put plainly: Test of asphyxic anoxia (spectral analysis of electroencephalogram).
Assay [4] deals with Male rats. The following applies: intravenous.
Assay [5] has as its system Female mice. Put plainly: Hot Plate Test (analgesic activity). The following applies: sub-cutaneous; 30 minutes after treatment; plate 56° C.
The mark [6] stands for this setting: 1 mg/kg i.v., 2 minutes after anoxia.
[7] abbreviates: 1 mg/kg i.v., 10 minutes after anoxia.
[8] abbreviates: 1 mg/kg i.v., 30 minutes after anoxia.
The mark [9] stands for this setting: 5 mg/kg i.v., 2 minutes after anoxia.
The mark [10] stands for this setting: 5 mg/kg i.v., 10 minutes after anoxia.
[11] abbreviates: 5 mg/kg i.v., 30 minutes after anoxia.

Turning to `O=C(Cc1ccc(Br)cc1)N1CCC[C@@H]2CCC[C@@H](N3CCCC3)[C@@H]21` (relative stereo), the IC50 in assay [1] was 9.5 nM.

As for `O=C(Cc1ccc(C(F)(F)F)cc1)N1CCC[C@@H]2CCC[C@@H](N3CCCC3)[C@@H]21` (relative stereo), the “DA50 (dose giving reduction of 50% in the number of stretching)” value in assay [2] is listed as 21 mg/kg. Moreover, in assay [1], the IC50 stood at 5 nM.

With `O=C(Cc1cccc2sccc12)N1CCC[C@@H]2CCC[C@@H](N3CCCC3)[C@@H]21` (relative stereo), in assay [1], the IC50 worked out at 4.1 nM.

Consider `CC(C(=O)N1CCCC2CCCC(N3CCCC3)C21)c1ccc(Cl)c(Cl)c1` (stereo not shown), for which, in assay [1], the IC50 came out at 5.4 nM.

On to `O=C(Cc1ccc(Cl)c(Cl)c1)N1CCC[C@@H]2CCC[C@@H](N3CCCC3)[C@@H]21` (relative stereo), for which, in assay [2], the “DA50 (dose giving reduction of 50% in the number of stretching)” value came to 18 mg/kg. Further, the IC50 in assay [1] is 2.7 nM. The “EEG TOTAL POWER (percentage of check before anoxia)” value in assay [3] (setting [6]) worked out at 70 ± 22%; in assay [3] (setting [7]), 173 ± 41%; in assay [3] (setting [8]), 120 ± 9%; in assay [3] (1 mg/kg i.v., before anoxia), 100 ± 0%; in assay [3] (1 mg/kg i.v., end of anoxia) it was 0 ± 0%; in assay [3] (setting [9]), 68 ± 14%. In addition, the “EEG TOTAL POWER (percentage of check before anoxia)” value in assay [3] (setting [10]) is reported as 79 ± 6%; in assay [3] (setting [11]), 100 ± 8%; in assay [3] (5 mg/kg i.v., before anoxia) it was 100 ± 0%; in assay [3] (5 mg/kg i.v., end of anoxia), 0 ± 0%. The “EEG energy, ALPHA band (percentage of check before anoxia)” value was found to be 19 ± 6% in assay [3] (setting [6]); 73 ± 5% in assay [3] (setting [7]); 79 ± 6% in assay [3] (setting [8]); 100 ± 0% in assay [3] (1 mg/kg i.v., before anoxia); 0 ± 0% in assay [3] (1 mg/kg i.v., end of anoxia); 25 ± 5% in assay [3] (setting [9]). For the same molecule, the “EEG energy, ALPHA band (percentage of check before anoxia)” value in assay [3] (setting [10]) is 55 ± 4%; in assay [3] (setting [11]) it was 80 ± 8%; in assay [3] (5 mg/kg i.v., before anoxia), 100 ± 0%; in assay [3] (5 mg/kg i.v., end of anoxia), 0 ± 0%. Moreover, the “EEG energy, BETA band (percentage of check before anoxia)” value is recorded as 21 ± 7% in assay [3] (setting [6]); 96 ± 11% in assay [3] (setting [7]); 87 ± 5% in assay [3] (setting [8]); 100 ± 0% in assay [3] (1 mg/kg i.v., before anoxia); 0 ± 0% in assay [3] (1 mg/kg i.v., end of anoxia); 33 ± 5% in assay [3] (setting [9]). In addition, the “EEG energy, BETA band (percentage of check before anoxia)” value in assay [3] (setting [10]) amounted to 103 ± 14%; in assay [3] (setting [11]), 102 ± 9%; in assay [3] (5 mg/kg i.v., before anoxia) it was 100 ± 0%; in assay [3] (5 mg/kg i.v., end of anoxia) it was 0 ± 0%. The “EEG energy, DELTA band (percentage of check before anoxia)” value came out at 214 ± 60% in assay [3] (setting [6]); 404 ± 123% in assay [3] (setting [7]); 225 ± 32% in assay [3] (setting [8]); 100 ± 0% in assay [3] (1 mg/kg i.v., before anoxia); 1 ± 0% in assay [3] (1 mg/kg i.v., end of anoxia); 243 ± 68% in assay [3] (setting [9]). For the same molecule, the “EEG energy, DELTA band (percentage of check before anoxia)” value in assay [3] (setting [10]) is given as 127 ± 25%; in assay [3] (setting [11]) it was 123 ± 14%; in assay [3] (5 mg/kg i.v., before anoxia) it was 100 ± 0%; in assay [3] (5 mg/kg i.v., end of anoxia), 1 ± 0%. Further, the “EEG energy, THETA band (percentage of check before anoxia)” value in assay [3] (setting [6]) came out at 6 ± 2%; in assay [3] (setting [7]), 57 ± 8%; in assay [3] (setting [8]), 72 ± 6%; in assay [3] (1 mg/kg i.v., before anoxia), 100 ± 0%; in assay [3] (1 mg/kg i.v., end of anoxia), 0 ± 0%; in assay [3] (setting [9]), 6 ± 2%. For the same molecule, the “EEG energy, THETA band (percentage of check before anoxia)” value stood at 63 ± 11% in assay [3] (setting [10]); 94 ± 14% in assay [3] (setting [11]); 100 ± 0% in assay [3] (5 mg/kg i.v., before anoxia); 0 ± 0% in assay [3] (5 mg/kg i.v., end of anoxia). In addition, in assay [3] (1 mg/kg intravenous, 30 minutes from end of anoxia), the “value of the delta bands (in words)” value is “still about twice the base value”. The “recuperation of the electro-cortical activity (in words)” value in assay [3] (1 mg/kg, intravenous) is “an anticipation of the recuperation of the electro-cortical activity was observed, while the effect on the normalization of the trace was less evident”; in assay [3] (5 mg/kg intravenous, all frequency bands) it was “remarkable anticipation of the recuperation of the electro-cortical activity in all the frequency bands”. Further, the “values of the different bands of frequency (in words)” value in assay [3] (5 mg/kg intravenous, 30 minutes after anoxia) is on record as “almost equal to the base values”. The “Percentage of extension of time of appearance of disturbances of cardiac rhythm” value is “+17.5%” in assay [4] (1 mg/kg), “+31.5%” in assay [4] (2.5 mg/kg), “+56.6%” in assay [4] (5 mg/kg) and “+113.5%” in assay [4] (10 mg/kg). Further, in assay [5], the “AD100 (dose which increased the reaction time by 100%)” value was determined as 20 mg/kg.

Turning to `COc1cc(C(=O)N2CCC[C@@H]3CCC[C@@H](N4CCCC4)[C@@H]32)cc(OC)c1OC` (relative stereo), the results for the “Percentage of extension of time of appearance of disturbances of cardiac rhythm” value in assay [4] (0.25 mg/kg), in assay [4] (0.5 mg/kg) and in assay [4] (1 mg/kg) were “+45%”, “+85%” and “+141%”, respectively.

On to `O=C(Cc1ccc([N+](=O)[O-])cc1)N1CCC[C@@H]2CCC[C@@H](N3CCCC3)[C@@H]21` (relative stereo), for which the “DA50 (dose giving reduction of 50% in the number of stretching)” value in assay [2] is 20 mg/kg. Further, the IC50 in assay [1] is 17 nM.

In the case of `O=C(Cc1ccc(Cl)cc1Cl)N1CCC[C@@H]2CCC[C@@H](N3CCCC3)[C@@H]21` (relative stereo), the IC50 in assay [1] stood at 12 nM.

Consider `O=C(Cc1cccc2ccccc12)N1CCC[C@@H]2CCC[C@@H](N3CCCC3)[C@@H]21` (relative stereo), for which the IC50 in assay [1] was determined as 6 nM.
